Several values for one entry are separate records, joined by “and”; a condition that tells them apart may be missing. Equal values may be shown once. Read-outs that look alike come from different tables or passages of the source.
Test system: New Zealand White rabbits
Conditions: for Silence Duration: N = 9; for % Δ-CLD (%-change in CLD from baseline) / % Δ-ILD (%-change in ILD from baseline): baseline = 100

CCCC(C)C1(CC)C(=O)NC(=S)NC1=O (stereo not shown) [pentothal]
Post-silence recovery time (Pentothal + Arrest): 85 ± 27 s
Total Recovery Time (Pentothal + Arrest): 291 ± 60 s
Silence Duration (Pentothal + Arrest: 3 mg intracarotid during esmolol/adenosine flow arrest): 206 ± 46 s
CLD Flow (Pentothal + Arrest, Drug): 41 ± 21 PU
Heart Rate (Pentothal + Arrest, Drug): 125 ± 19 bpm
ILD Flow (Pentothal + Arrest, Drug): 33±11 PU
MAP (Pentothal + Arrest, Drug): 26 ± 2 mm Hg
% Δ-CLD (%-change in CLD from baseline) (Pentothal + Arrest, Drug): 36 ± 9 %
% Δ-ILD (%-change in ILD from baseline) (Pentothal + Arrest, Drug): 20-30% and 27 ± 8 %
CLD Flow (Pentothal + Arrest, Recovery): 106 ± 34 PU
Heart Rate (Pentothal + Arrest, Recovery): 258 ± 44 bpm
ILD Flow (Pentothal + Arrest, Recovery): 161 ± 81 PU
MAP (Pentothal + Arrest, Recovery): 91 ± 14 mm Hg
% Δ-CLD (%-change in CLD from baseline) (Pentothal + Arrest, Recovery): 100 ± 32%
% Δ-ILD (%-change in ILD from baseline) (Pentothal + Arrest, Recovery): 124 ± 33%
Post-silence recovery time (Pentothal-1 (before arrest)): 81 ± 27 s
Total Recovery Time (Pentothal-1 (before arrest)): 126 ± 29 s
Silence Duration (Pentothal-1: 3 mg intracarotid before flow arrest): 45 ± 5 s and 46 ± 5 s
CLD Flow (Pentothal-1, Drug): 111 ± 50 PU
Heart Rate (Pentothal-1, Drug): 262 ± 36 bpm
ILD Flow (Pentothal-1, Drug): 147 ± 83 PU
MAP (Pentothal-1, Drug): 94 ± 17 mm Hg
% Δ-CLD (%-change in CLD from baseline) (Pentothal-1, Drug): 106 ± 38 %
% Δ-ILD (%-change in ILD from baseline) (Pentothal-1, Drug): 106 ± 51 %
CLD Flow (Pentothal-1, Recovery): 93 ± 23 PU
Heart Rate (Pentothal-1, Recovery): 241 ± 29 bpm
ILD Flow (Pentothal-1, Recovery): 140 ± 66 PU
MAP (Pentothal-1, Recovery): 102 ± 7 mm Hg
% Δ-CLD (%-change in CLD from baseline) (Pentothal-1, Recovery): 94 ± 19%
% Δ-ILD (%-change in ILD from baseline) (Pentothal-1, Recovery): 101 ± 29%
Post-silence recovery time (Pentothal-2 (after arrest)): 94 ± 55 s
Total Recovery Time (Pentothal-2 (after arrest)): 161 ± 71 s
Silence Duration (Pentothal-2: 3 mg intracarotid after flow arrest): 67 ± 27 s
CLD Flow (Pentothal-2, Drug): 118 ± 41 PU
Heart Rate (Pentothal-2, Drug): 254 ± 20 bpm
ILD Flow (Pentothal-2, Drug): 140 ± 55 PU
MAP (Pentothal-2, Drug): 91 ± 21 mm Hg
% Δ-CLD (%-change in CLD from baseline) (Pentothal-2, Drug): 112 ± 26 %
% Δ-ILD (%-change in ILD from baseline) (Pentothal-2, Drug): 104 ± 30 %
CLD Flow (Pentothal-2, Recovery): 89 ± 38 PU
Heart Rate (Pentothal-2, Recovery): 268 ± 22 bpm
ILD Flow (Pentothal-2, Recovery): 129 ± 68 PU
MAP (Pentothal-2, Recovery): 99 ± 11 mm Hg
% Δ-CLD (%-change in CLD from baseline) (Pentothal-2, Recovery): 83 ± 22%
% Δ-ILD (%-change in ILD from baseline) (Pentothal-2, Recovery): 92 ± 38%
prolongation in the duration of electrocerebral silence (pentothal+arrest vs. pentothal-1 and 2): 3-5 folds

From patent US20060047261A1, “Intra-arterial catheter for drug delivery” (priority 2004, published 2006)
